Patent publication US20060106092A1

Chains of the proteins cited; added tags and fusions are not shown. Lines headed by an entry give the natural chain unless they say otherwise; changes in a name come on top.
UniProt P11511, whole entry: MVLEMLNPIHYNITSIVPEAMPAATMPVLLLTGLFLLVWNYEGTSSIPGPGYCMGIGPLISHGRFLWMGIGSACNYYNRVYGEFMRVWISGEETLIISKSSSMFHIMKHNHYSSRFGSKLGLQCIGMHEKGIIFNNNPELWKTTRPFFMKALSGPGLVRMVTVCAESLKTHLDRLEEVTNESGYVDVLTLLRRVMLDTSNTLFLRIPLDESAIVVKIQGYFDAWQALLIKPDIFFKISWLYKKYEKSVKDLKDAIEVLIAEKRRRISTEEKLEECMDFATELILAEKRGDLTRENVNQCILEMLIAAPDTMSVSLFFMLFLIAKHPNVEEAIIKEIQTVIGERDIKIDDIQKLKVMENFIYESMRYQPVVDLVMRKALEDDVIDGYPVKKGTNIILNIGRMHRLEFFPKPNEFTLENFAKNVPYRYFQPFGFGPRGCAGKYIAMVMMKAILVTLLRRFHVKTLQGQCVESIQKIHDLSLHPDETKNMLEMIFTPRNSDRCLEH
UniProt P11511, whole entry D309A: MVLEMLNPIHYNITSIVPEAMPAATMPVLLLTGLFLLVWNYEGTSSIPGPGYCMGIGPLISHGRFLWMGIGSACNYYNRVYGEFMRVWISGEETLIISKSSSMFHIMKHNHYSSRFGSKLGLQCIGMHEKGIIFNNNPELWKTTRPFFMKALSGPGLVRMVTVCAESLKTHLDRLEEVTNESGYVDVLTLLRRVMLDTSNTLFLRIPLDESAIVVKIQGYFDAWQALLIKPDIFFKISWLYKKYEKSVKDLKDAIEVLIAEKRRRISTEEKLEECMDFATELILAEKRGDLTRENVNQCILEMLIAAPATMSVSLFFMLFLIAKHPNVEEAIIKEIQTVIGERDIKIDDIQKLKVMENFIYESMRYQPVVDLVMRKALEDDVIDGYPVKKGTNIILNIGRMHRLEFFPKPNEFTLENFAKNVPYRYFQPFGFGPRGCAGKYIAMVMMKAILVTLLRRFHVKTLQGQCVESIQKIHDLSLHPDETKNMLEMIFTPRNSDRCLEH
UniProt P11511, whole entry E302D: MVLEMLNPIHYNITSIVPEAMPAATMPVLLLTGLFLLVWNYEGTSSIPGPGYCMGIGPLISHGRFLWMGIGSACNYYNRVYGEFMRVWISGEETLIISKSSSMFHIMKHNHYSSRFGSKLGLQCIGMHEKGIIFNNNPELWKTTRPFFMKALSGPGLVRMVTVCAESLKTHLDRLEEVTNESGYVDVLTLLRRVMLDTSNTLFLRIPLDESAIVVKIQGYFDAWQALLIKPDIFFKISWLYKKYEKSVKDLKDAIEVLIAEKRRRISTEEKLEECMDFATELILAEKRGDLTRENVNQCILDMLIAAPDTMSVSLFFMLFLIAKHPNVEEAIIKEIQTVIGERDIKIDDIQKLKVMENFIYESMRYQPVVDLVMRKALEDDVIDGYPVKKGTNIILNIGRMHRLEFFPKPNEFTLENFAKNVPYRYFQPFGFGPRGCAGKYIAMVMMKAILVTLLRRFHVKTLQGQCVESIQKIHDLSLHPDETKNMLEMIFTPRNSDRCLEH
UniProt P11511, whole entry H480Q: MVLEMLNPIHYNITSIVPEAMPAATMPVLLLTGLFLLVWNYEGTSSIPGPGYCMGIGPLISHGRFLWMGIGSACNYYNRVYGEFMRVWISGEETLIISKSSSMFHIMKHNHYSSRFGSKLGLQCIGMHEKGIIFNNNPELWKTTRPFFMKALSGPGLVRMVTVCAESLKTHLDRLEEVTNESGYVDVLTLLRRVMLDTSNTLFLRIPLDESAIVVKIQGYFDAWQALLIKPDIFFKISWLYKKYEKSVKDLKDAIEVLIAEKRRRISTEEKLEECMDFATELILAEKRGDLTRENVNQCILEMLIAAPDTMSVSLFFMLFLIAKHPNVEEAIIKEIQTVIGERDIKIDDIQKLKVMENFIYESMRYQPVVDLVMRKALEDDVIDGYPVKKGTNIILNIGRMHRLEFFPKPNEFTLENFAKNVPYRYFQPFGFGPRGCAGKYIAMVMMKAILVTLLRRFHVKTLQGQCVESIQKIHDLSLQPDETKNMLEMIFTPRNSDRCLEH
UniProt P11511, whole entry I133Y: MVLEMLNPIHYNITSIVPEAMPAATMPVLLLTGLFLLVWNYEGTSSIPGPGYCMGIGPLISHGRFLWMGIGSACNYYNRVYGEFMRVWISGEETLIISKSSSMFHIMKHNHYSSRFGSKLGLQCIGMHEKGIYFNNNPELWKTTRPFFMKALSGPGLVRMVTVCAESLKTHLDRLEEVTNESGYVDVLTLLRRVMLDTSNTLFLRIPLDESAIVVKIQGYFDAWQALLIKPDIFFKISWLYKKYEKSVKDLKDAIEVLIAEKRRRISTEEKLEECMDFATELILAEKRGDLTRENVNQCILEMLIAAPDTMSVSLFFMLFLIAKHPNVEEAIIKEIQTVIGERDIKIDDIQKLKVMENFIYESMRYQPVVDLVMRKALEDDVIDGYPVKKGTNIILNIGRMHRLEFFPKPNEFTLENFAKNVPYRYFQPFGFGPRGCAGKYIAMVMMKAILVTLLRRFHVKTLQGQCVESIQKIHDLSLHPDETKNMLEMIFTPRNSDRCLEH
UniProt P11511, whole entry S478T: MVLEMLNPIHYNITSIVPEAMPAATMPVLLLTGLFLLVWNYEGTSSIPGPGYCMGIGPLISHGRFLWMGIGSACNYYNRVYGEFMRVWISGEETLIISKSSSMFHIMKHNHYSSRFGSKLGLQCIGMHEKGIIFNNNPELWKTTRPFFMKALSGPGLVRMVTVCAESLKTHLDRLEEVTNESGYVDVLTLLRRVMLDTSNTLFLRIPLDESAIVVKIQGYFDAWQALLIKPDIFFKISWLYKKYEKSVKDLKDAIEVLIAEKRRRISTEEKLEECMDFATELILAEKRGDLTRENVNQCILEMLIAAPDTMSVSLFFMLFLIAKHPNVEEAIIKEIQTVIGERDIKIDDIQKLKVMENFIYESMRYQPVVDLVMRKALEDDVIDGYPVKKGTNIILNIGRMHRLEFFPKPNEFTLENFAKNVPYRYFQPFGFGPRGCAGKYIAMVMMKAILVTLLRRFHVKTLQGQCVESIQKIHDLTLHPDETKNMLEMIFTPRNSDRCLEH
UniProt P11511, whole entry T310S: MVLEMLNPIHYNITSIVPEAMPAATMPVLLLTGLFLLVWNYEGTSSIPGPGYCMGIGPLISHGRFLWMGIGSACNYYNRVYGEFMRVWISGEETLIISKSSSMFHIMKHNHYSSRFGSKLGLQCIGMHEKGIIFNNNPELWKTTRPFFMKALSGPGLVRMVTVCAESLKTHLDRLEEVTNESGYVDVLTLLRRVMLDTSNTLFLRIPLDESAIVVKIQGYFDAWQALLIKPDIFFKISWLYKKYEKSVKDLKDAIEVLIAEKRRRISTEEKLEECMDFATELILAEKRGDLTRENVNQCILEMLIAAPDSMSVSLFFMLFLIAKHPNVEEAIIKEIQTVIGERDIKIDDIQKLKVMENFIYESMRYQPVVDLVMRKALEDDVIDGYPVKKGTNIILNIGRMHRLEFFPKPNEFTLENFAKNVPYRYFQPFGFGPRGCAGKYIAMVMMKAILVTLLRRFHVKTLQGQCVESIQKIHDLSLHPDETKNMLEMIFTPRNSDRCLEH

Experiments:
[1] = target: human aromatase mutant D309A (Homo sapiens, UniProt P11511, D309A); experiment: in vitro microsome aromatase assay on homogenates of mutant D309A aromatase transfected CHO cells; conditions: FIG. 5
Procedure: (§1) In the presence of various concentrations of HPLC peak 1 procyanidin B dimer, an in vitro microsome assay was performed on the cell homogenates prepared from the wild-type and mutant human aromatase transfected CHO cells. The activities of the untreated samples were taken as 100%. Chinese hamster ovary (CHO) cells transfected with human wild-type and mutant aromatase were grown in Ham's medium, 1 mM sodium pyruvate, 2 mM L-glutamine, 1X-penicillin/streptomycin, 15 mM HEPES, and 10% FBS optimized for CHO cells (Hyclone).
(§2) Aromatase Site-Directed Mutagenesis Studies. The specificity of the interaction of peak 1 procyanidin B dimer with aromatase was further evaluated using aromatase active site mutants. […]
(§3) In vitro aromatase Assay. Aromatase activity was determined using the tritiated water release method.^8 The assay was performed using placental microsomes or microsomal fractions prepared from aromatase-expressing Chinese hamster ovary (CHO) cells. […]
(§4) For the second extraction, the upper aqueous phase was transferred to microfuge tubes containing a dextran-charcoal pellet. […] For each sample, a 300 μl aliquot of the supernatant containing the tritiated water product, was mixed with 3 ml Scintisafe 30% liquid scintillation cocktail and counted in a Tri-Carb Liquid Scintillation Analyzer 1600CA (Packard, Downers Grove, Ill.).

[2] = target: human aromatase mutant I133Y (Homo sapiens, UniProt P11511, I133Y); experiment: in vitro microsome aromatase assay on homogenates of mutant I133Y aromatase transfected CHO cells; conditions: FIG. 5
Procedure: as §1, §2, §3, §4

[3] = target: human aromatase mutant T310S (Homo sapiens, UniProt P11511, T310S); experiment: in vitro microsome aromatase assay on homogenates of mutant T310S aromatase transfected CHO cells; conditions: FIG. 5
Procedure: as §1, §2, §3, §4

[4] = target: human aromatase mutant E302D (Homo sapiens, UniProt P11511, E302D); experiment: in vitro microsome aromatase assay on homogenates of mutant E302D aromatase transfected CHO cells; conditions: FIG. 5
Procedure: as §1, §2, §3, §4

[5] = target: human aromatase mutant S478T (Homo sapiens, UniProt P11511, S478T); experiment: in vitro microsome aromatase assay on homogenates of mutant S478T aromatase transfected CHO cells; conditions: FIG. 5
Procedure: as §1, §2, §3, §4

[6] = target: human aromatase mutant H480Q (Homo sapiens, UniProt P11511, H480Q); experiment: in vitro microsome aromatase assay on homogenates of mutant H480Q aromatase transfected CHO cells; conditions: FIG. 5
Procedure: as §1, §2, §3, §4

[7] = target: human placental aromatase (Homo sapiens, UniProt P11511); experiment: human placenta microsome aromatase assay (tritiated water release)
Procedure: In vitro aromatase Assay. Aromatase activity was determined using the tritiated water release method.^8 The assay was performed using placental microsomes or microsomal fractions prepared from aromatase-expressing Chinese hamster ovary (CHO) cells. The assay reaction mixture (500 μl) contained the substrate [1β-^3H(N)] androst-4-ene-3,17-dione (specific activity 24.7 Ci/mmol) (100 nM), microsomal preparations (20 μg), progesterone (10 μM), bovine serum albumin (0.1%) and potassium phosphate (67 mM, pH 7.4). Progesterone was required to suppress endogenous 5α-reductase in the cell homogenates that also consume the androgen substrate. After incubation for 10 minutes at room temperature, 50 μl of NADPH (12 mM) was added to the mixture and incubated in a 37° C. water bath for 10 minutes. At the end of 10 minutes, the reaction was stopped by the addition of 500 μl of 5% TCA. After a 10 minute centrifugation at 1000×g, supernatants were removed to new glass tubes and mixed with an equal volume of chloroform to remove unreacted substrate.
For the second extraction, the upper aqueous phase was transferred to microfuge tubes containing a dextran-charcoal pellet. Charcoal mixtures were vortexed and subsequently pelleted by centrifugation at 15,000×g for 5 minutes. For each sample, a 300 μl aliquot of the supernatant containing the tritiated water product, was mixed with 3 ml Scintisafe 30% liquid scintillation cocktail and counted in a Tri-Carb Liquid Scintillation Analyzer 1600CA (Packard, Downers Grove, Ill.).
To determine the aromatase suppression activity of wine chemicals, the assay was performed in the presence of wine fractions at the indicated amounts. Inhibition kinetic analysis on wine chemicals was performed with varying concentrations of the substrate androstenedione at 20, 40, 60, 100 and 200 nM.

## Oc1cc(O)c2c(c1)OC(c1ccc(O)c(O)c1)C(O)C2c1c(O)cc2c(c1O)CC(O)C(c1ccc(O)c(O)c1)O2 (single isomer, unassigned)
[1]
  effect of mutation on inhibition compared to wild-type aromatase: completely eliminating the ability of HPLC peak 1 dimer to inhibit aromatase
[2]
  effect of mutation on inhibition profile compared to wild-type aromatase: did not alter the inhibition profile
[3]
  effect of mutation on inhibition compared to wild-type aromatase: more effective dose response
[4]
  effect of mutation on inhibition profile compared to wild-type aromatase: did not alter the inhibition profile
[5]
  effect of mutation on inhibition compared to wild-type aromatase: significant in reversing the inhibitory action
[6]
  effect of mutation on inhibition compared to wild-type aromatase: significant in reversing the inhibitory action
[7]; enzyme kinetic analysis, FIG. 4
  manner of aromatase inhibition with respect to the substrate: competitive
[7]; read-out: IC50 of aromatase inhibition, human placental microsomes, 100 nM androstenedione substrate, calculated using a molecular weight of 579
  IC50: 15 to 20 µM
[7]; read-out: Ki value, secondary plot (1/v versus [I]), androstenedione 20-200 nM
  Ki: 6 µM
